Data published in patent publication US20230227428A1 (Anaxis Pharma Pty Ltd, priority 2020, published 2023).

The chains behind the UniProt entries cited, without tags or fusion partners. Where a name states a change or a piece, a line headed by the entry shows the natural chain unless it says otherwise.
UniProt Q9Y572: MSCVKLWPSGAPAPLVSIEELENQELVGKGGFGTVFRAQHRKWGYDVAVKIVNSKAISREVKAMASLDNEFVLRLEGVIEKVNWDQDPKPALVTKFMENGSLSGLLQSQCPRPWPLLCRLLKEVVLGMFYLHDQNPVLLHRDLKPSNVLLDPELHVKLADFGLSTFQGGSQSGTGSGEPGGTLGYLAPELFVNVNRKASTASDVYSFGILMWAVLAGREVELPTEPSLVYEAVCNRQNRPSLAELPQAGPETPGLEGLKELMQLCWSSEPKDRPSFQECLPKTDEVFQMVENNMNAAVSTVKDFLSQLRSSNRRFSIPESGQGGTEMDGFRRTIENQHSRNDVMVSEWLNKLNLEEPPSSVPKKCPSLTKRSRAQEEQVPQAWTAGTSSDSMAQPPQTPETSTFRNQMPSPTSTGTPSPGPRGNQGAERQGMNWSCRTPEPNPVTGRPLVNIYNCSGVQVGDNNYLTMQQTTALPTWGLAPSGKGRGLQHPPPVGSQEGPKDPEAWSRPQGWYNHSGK

Experiments:
Details in all cases: equilibrium dissociation constant
[1] = target: T1, RIP1 (Homo sapiens, UniProt Q13546); assay: KINOMEscan binding affinity assay, RIP1
T1 construct: purchased DiscoverX (KINOMEscan service); host or cells: E. coli BL21-derived host (T7 phage) or HEK-293
T1 sequence (Q13546 1-671): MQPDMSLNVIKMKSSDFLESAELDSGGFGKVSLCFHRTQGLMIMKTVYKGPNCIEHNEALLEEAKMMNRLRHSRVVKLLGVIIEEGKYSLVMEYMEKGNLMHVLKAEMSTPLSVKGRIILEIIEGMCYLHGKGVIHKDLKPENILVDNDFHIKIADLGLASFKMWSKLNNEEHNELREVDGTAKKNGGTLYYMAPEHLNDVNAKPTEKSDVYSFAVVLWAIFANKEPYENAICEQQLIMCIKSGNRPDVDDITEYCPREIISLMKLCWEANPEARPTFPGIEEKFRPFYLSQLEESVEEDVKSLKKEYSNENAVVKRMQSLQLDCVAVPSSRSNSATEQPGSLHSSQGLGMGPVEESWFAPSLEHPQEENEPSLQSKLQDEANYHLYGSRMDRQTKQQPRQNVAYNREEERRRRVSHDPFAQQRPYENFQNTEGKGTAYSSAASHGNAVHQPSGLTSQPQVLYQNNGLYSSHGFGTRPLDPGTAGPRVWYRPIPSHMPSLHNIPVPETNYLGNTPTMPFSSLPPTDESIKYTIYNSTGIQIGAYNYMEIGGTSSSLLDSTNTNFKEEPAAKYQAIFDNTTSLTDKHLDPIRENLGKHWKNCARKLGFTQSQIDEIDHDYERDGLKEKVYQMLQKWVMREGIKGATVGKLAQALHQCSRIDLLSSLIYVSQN

[2] = target: T2, RIP3 (Homo sapiens, UniProt Q9Y572); assay: KINOMEscan binding affinity assay, RIP3
T2 construct: purchased DiscoverX (KINOMEscan service); host or cells: E. coli BL21-derived host (T7 phage) or HEK-293

[3] = target: T3, MLKL (full length) (Homo sapiens, UniProt Q8NB16); assay: KINOMEscan binding affinity assay, MLKL
T3 construct: purchased DiscoverX (KINOMEscan service); host or cells: E. coli BL21-derived host (T7 phage) or HEK-293
T3 sequence (Q8NB16 1-471): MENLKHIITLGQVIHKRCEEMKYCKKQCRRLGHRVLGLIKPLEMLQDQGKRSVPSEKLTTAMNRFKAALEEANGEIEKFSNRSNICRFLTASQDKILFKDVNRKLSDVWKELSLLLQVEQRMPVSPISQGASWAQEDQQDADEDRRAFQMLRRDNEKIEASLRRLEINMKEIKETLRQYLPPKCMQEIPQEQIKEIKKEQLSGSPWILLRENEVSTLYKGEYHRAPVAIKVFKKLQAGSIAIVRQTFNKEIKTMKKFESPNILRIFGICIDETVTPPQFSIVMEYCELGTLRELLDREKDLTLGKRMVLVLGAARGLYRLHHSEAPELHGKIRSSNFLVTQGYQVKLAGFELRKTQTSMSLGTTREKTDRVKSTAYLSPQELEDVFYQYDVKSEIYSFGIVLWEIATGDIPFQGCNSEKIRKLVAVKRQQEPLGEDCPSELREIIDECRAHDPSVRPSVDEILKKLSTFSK

| SMILES | Kd [1] [nM] | Kd [2] [nM] | Kd [3] [nM] |
| --- | --- | --- | --- |
| CNc1c(Nc2ccc(-c3n[nH]c(Nc4ccccn4)c3C(N)=O)cc2)c(=O)c1=O [Compound 118, 3-(4-((2-(methylamino)-3,4-dioxocyclobut-1-en-1-yl)amino)phenyl)-5-(pyridin-2-ylamino)-1H-pyrazole-4-carboxamide] | > 1000 | – | > 1000 |
| NC(=O)c1c(-c2ccc(NC(=O)C(c3ccccc3)c3ccccc3)cc2)n[nH]c1Nc1ccccn1 [Compound 5, 3-(4-(2,2-diphenyl-acetamido)phenyl)-5-(pyridin-2-ylamino)-1H-pyrazole-4-carboxamide] | > 1000 | > 1000 | – |
| COCCOc1cc(Nc2[nH]nc(-c3ccc(NC(=O)CN)cc3)c2C(N)=O)ccn1 [Compound 17, 3-(4-(2-aminoacetamido)phenyl)-5-((2-(2-methoxyethoxy)pyridin-4-yl)amino)-1H-pyrazole-4-carboxamide] | > 1000 | > 1000 | – |
| NC(=O)c1c(-c2ccc(NC(=O)Cc3ccncc3)cc2)n[nH]c1Nc1ccccn1 [Compound 12, 5-(pyridin-2-ylamino)-3-(4-(pyridin-4-(2-yl)acetamido)phenyl)-1H-pyrazole-4-carboxamide] | > 1000 | > 1000 | – |
| COCCOc1cc(Nc2[nH]nc(-c3ccc(NC(=O)CN(C)C)cc3)c2C(N)=O)ccn1 [Compound 19, 3-(4-(2-(dimethylamino)acetamido)phenyl)-5-((2-(2-methoxyethoxy)pyridin-4-yl)amino)-1H-pyrazole-4-carboxamide] | > 1000 | > 1000 | – |
| COc1cc(Nc2[nH]nc(-c3ccc(NC(=O)N4CCCc5ccccc54)cc3)c2C(N)=O)ccn1 [Compound 54, N-(4-(4-carbamoyl-5-((2-methoxypyridin-4-yl)amino)-1H-pyrazol-3-yl)phenyl)-3,4-dihydroquinoline-1(2H)-carboxamide] | > 1000 | > 1000 | – |
| COc1cc(Nc2[nH]nc(-c3ccc(NC(=O)N4CC[C@H](c5ccccc5)C4)cc3)c2C(N)=O)ccn1 [Compound 63, (R)-5-((2-methoxypyridin-4-yl)amino)-3-(4-(3-phenylpyrrolidine-1-carboxamido)phenyl)-1H-pyrazole-4-carboxamide] | > 1000 | > 1000 | – |
| COc1cc(Nc2[nH]nc(-c3ccc(NC(=O)N4CCC(C)(c5ccccc5)C4)cc3)c2C(N)=O)ccn1 (centres unmarked) [Compound 72, 5-((2-methoxypyridin-4-yl)amino)-3-(4-(3-methyl-3-phenylpyrrolidine-1-carboxamido)phenyl)-1H-pyrazole-4-carboxamide] | > 1000 | > 1000 | – |
| Cc1cc(Nc2[nH]nc(-c3ccc(NC(=O)N4CCC(c5ccccc5)C4)cc3)c2C(N)=O)cc(C)n1 (centres unmarked) [Compound 84, 5-((2,6-dimethylpyridin-4-yl)amino)-3-(4-(3-phenylpyrrolidine-1-carboxamido)phenyl)-1H-pyrazole-4-carboxamide] | > 1000 | > 1000 | – |
| NC(=O)c1c(-c2ccc(NC(=O)Cc3ccccc3)cc2)n[nH]c1Nc1cnccn1 [Compound 29, 3-(4-(2-phenylacetamido)phenyl)-5-(pyrazin-2-ylamino)-1H-pyrazole-4-carboxamide] | > 1000 | > 1000 | – |
| Cc1cc(Nc2[nH]nc(-c3ccc(NC(=O)N4CCc5ccccc5C4)cc3)c2C(N)=O)cc(C)n1 [Compound 85, N-(4-(4-carbamoyl-5-((2,6-dimethylpyridin-4-yl)amino)-1H-pyrazol-3-yl)phenyl)-3,4-dihydroisoquinoline-2(1H)-carboxamide] | > 1000 | > 1000 | – |
| NC(=O)c1c(-c2ccc(NC(=O)N3CCc4cc(C(F)(F)F)ccc4C3)cc2)n[nH]c1Nc1cccc(C(F)(F)F)n1 [Compound 76, N-(4-(4-carbamoyl-5-((6-(trifluoromethyl)pyridin-2-yl)amino)-1H-pyrazol-3-yl)phenyl)-6-(trifluoromethyl)-3,4-dihydroiso-quinoline-2(1H)-carboxamide] | > 1000 | > 1000 | – |
| COc1cc(Nc2[nH]nc(-c3ccc(NC(=O)N4CCC(c5ccccc5)C4)cc3)c2C(N)=O)ccn1 (centres unmarked) [Compound 50, 5-((2-methoxypyridin-4-yl)amino)-3-(4-(3-phenylpyrrolidine-1-carboxamido)phenyl)-1H-pyrazole-4-carboxamide] | > 1000 | > 1000 | – |

Continued, values first:

| Kd [1] [nM] | Kd [2] [nM] | Kd [3] [nM] | SMILES |
| --- | --- | --- | --- |
| > 1000 | > 1000 | – | NC(=O)c1c(-c2ccc(Nc3c(NCc4ccccc4)c(=O)c3=O)cc2)n[nH]c1Nc1ccccn1 [Compound 120, 3-(4-((2-(benzylamino)-3,4-dioxocyclobut-1-en-1-yl)amino)phenyl)-5-(pyridin-2-ylamino)-1H-pyrazole-4-carboxamide] |
| > 1000 | > 1000 | – | NC(=O)c1c(-c2ccc(NC(=O)Cc3ccccn3)cc2)n[nH]c1Nc1ccccn1 [Compound 10, 3-(4-(2-(pyridin-2-yl)acetamido)phenyl)-5-(pyridin-2-ylamino)-1H-pyrazole-4-carboxamide] |
| > 1000 | > 1000 | – | NC(=O)c1c(-c2ccc(Nc3c(Nc4ccccc4)c(=O)c3=O)cc2)n[nH]c1Nc1ccccn1 [Compound 116, 3-(4-((3,4-dioxo-2-(phenylamino)cyclobut-1-en-1-yl)amino)phenyl)-5-(pyridin-2-ylamino)-1H-pyrazole-4-carboxamide] |
| < 100 | – | < 100 | NC(=O)c1c(-c2ccc(NC(=O)N3CCCC(c4ccc(F)cc4)C3)cc2)n[nH]c1Nc1cnccn1 (centres unmarked) [Compound 94, N-(4-(4-carbamoyl-5-(pyrazin-2-ylamino)-1H-pyrazol-3-yl)phenyl)-3-(4-fluorophenyl)piperidine-1-carboxamide] |
| > 1000 | – | > 1000 | NC(=O)c1c(-c2ccc(NC(=O)Cc3cccnc3)cc2)n[nH]c1Nc1ccccn1 [Compound 11, 5-(pyridin-2-ylamino)-3-(4-(2-(pyridin-3-yl)acetamido)phenyl)-1H-pyrazole-4-carboxamide] |
| > 1000 | – | > 1000 | NC(=O)c1c(-c2ccc(Nc3c(N4CCOCC4)c(=O)c3=O)cc2)n[nH]c1Nc1ccccn1 [Compound 123, 3-(4-((2-morpholino-3,4-dioxocyclobut-1-en-1-yl)amino)phenyl)-5-(pyridin-2-ylamino)-1H-pyrazole-4-carboxamide] |
| > 1000 | > 1000 | – | COc1cc(Nc2[nH]nc(-c3ccc(NC(=O)N(C)c4ccccc4)cc3)c2C(N)=O)ccn1 [Compound 57, 5-((2-methoxypyridin-4-yl)amino)-3-(4-(3-methyl-3-phenylureido)phenyl)-1H-pyrazole-4-carboxamide] |
| > 1000 | – | < 100 | COc1cc(Nc2[nH]nc(-c3ccc(NC(=O)N4CCc5ccccc5C4)cc3)c2C(N)=O)ccn1 [Compound 51, N-(4-(4-carbamoyl-5-((2-methoxypyridin-4-yl)amino)-1H-pyrazol-3-yl)phenyl)-3,4-dihydroisoquinoline-2(1H)-carboxamide] |
| < 100 | > 1000 | – | NC(=O)c1c(-c2ccc(NC(=O)N3CCC[C@H](c4ccc(F)cc4)C3)cc2)n[nH]c1Nc1cccc(C(F)(F)F)n1 [Compound 78, (R)-N-(4-(4-carbamoyl-5-((6-(trifluoromethyl)pyridin-2-yl)amino)-1H-pyrazol-3-yl)phenyl)-3-(4-fluorophenyl)piperidine-1-carboxamide] |
| 100 to 1000 | > 1000 | – | COc1cc(Nc2[nH]nc(-c3ccc(NC(=O)N4CCC[C@@H]4c4ccccc4)cc3)c2C(N)=O)ccn1 [Compound 104, (R)-5-((2-methoxypyridin-4-yl)amino)-3-(4-(2-phenyl-pyrrolidine-1-carboxamido)phenyl)-1H-pyrazole-4-carboxamide] |
| 100 to 1000 | > 1000 | – | NC(=O)c1c(-c2ccc(NC(=O)N3CCCC(c4ccc(Cl)cc4)C3)cc2)n[nH]c1Nc1cnccn1 (centres unmarked) [Compound 92, N-(4-(4-carbamoyl-5-(pyrazin-2-ylamino)-1H-pyrazol-3-yl)phenyl)-3-(4-chlorophenyl)piperidine-1-carboxamide] |
| 100 to 1000 | > 1000 | – | COc1cc(Nc2[nH]nc(-c3ccc(NC(=O)NCCc4ccccc4)cc3)c2C(N)=O)ccn1 [Compound 66, 5-[(2-methoxypyridin-4-yl)amino]-3-(4-{[(2-phenylethyl)carbamoyl]amino}phenyl)-1H-pyrazole-4-carboxamide] |
